Assay results published in PMC9571170, “Exploring Active Ingredients, Beneficial Effects, and Potential Mechanism of Allium tenuissimum L. Flower for Treating T2DM Mice Based on Network Pharmacology and Gut Microbiota” (Nutrients, 2022).

Molecular target: α−Glucosidase (from yeast)
Assay: In vitro α−glucosidase inhibitory activity assay (PNPG substrate)
Format: biochemical
Protocol: The α−glucosidase inhibitory activity assay method of A. tenuissimum flower flavonoids was slightly modified based on previous studies. A 96−well plate was used for preparing the mixture consisting of 0.1 M PBS (pH 6.8), 1.0 mg/mL sample solution, and 2 U/mL α−glucosidase, which were incubated at 37 °C for 10 min. 20 μL PNPG solution (2.5 Mm, dissolved in PBS) was added to each well to start the reaction and incubated at 37 °C. Twenty minutes later, 80 μL Na2CO3 solution (0.2 mol/L) was added to each well to terminate the reaction. The absorbance was measured at 405 nm by Tecan Infinite M200 PRO (Tecan Trading Co. Ltd., Shanghai, China). […] The inhibitory rate was calculated by the absorbance formula below:Inhibition% = [1 − (Aa − Ab) / Ac] × 100% a. 20 μL PNPG + 80 μL Na2CO3 + 20 μL PBS + 20 μL sample + 20 μL enzyme; b. 20 μL PNPG + 80 μL Na2CO3 + 40 μL PBS +20 μL sample; c. 20 μL PNPG + 80 μL Na2CO3 + 40 μL PBS + 20 μL enzyme.

COc1cc(O)c2c(=O)c(O)c(-c3ccc(O)cc3)oc2c1 [AF−37, rhamnocitrin]
IC50: 191 ± 28 µM
